Screening data: PubChem, Broad Institute
Only some compounds are listed: those with a hit (about 1.6% of all), similar ones and a draw of the others.
CAL PDZ FP-1: CAL PDZ peptide-binding inhibitors, primary screen, biochemical, fluorescence polarization, Cer-tagged CAL PDZ, HTS; Golgi-associated PDZ and coiled-coil motif-containing protein (Homo sapiens), Q9HD26; purified CAL PDZ, TMR-peptide fluorescence polarization, 1 h; inhibition, % at 20 µM; 330,000 compounds, 0.02% hits; AID 504414, 2011;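 active = highest replicate inhibition of at least 40%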;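 note: plate controls were DMSO neutral control wells for no effect and unlabeled competitor peptide control wells for full effect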
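Material: tagged CAL PDZ protein CerCALP, purified; buffer or medium: sodium phosphate/NaCl buffer pH 7.4 with TCEP, IgG, Thesit; also added: fluorescent TMR peptide probe; schedule: 1 h incubation at room temperature before polarization reading; technique: fluorescence polarization from S- and P-plane intensities, G-factor corrected; control set: unlabelled peptide and DMSO controls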
PglD DTNB: C. jejuni PglD acetyltransferase inhibitors, primary screen, biochemical, DTNB colorimetric, single point; purified PglD enzyme, DTNB colorimetric CoA detection; inhibition, % at 12.5 µM; 360,000 compounds, 0.098% hits; in the data active = inhibition above about 16%, passing the limit was not always enough
CAL PDZ FP-2: untagged CAL PDZ binding inhibitors, primary screen, biochemical, fluorescence polarization, HTS; Golgi-associated PDZ and coiled-coil motif-containing protein (Homo sapiens), Q9HD26; purified CAL PDZ, TMR-peptide fluorescence polarization, 1 h; inhibition, % at 24.9 µM; 300,000 compounds, 0.92% hits;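 active = mean inhibition of at least 30% with at least half of replicates also reaching 30%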;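 note: 0% = DMSO neutral control and 100% = excess unlabeled competitor peptide PRC23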
ARNT-TACC3 inh: disruptors of ARNT/TACC3 protein interaction, primary screen, biochemical, AlphaScreen, single concentration | Transforming acidic coiled-coil-containing protein 3 (Homo sapiens), Q9Y6A5 | AlphaScreen His-ARNT PAS-B/GST-TACC3 binding, luminescence; TACC3 fragment carries E629A point mutation | inhibition, % at 9.99 µM | 390,000 compounds, 0.66% hits | AID 623870, 2012;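 active = mean inhibition of replicates at least 50% and at least half of replicates each reaching 50%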;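 note: 0% = complete ARNT plus TACC3 wells and 100% = ARNT alone without TACC3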
Vif inh: HIV Vif self-association inhibitors, primary screen, imaging, HEK293T, single point; 340,000 compounds, 0.35% hits; HEK293T cells, Vif self-association by quenched fluorescence, 24 h; inhibition, % at 7.49 µM; in the data active = inhibition above about 50%, passing the limit was not always enough
UUG fidelity: modulators of yeast start codon fidelity, primary screen, whole organism, S. cerevisiae, single point, plate reader; S. cerevisiae UUG-firefly luciferase reporter, luminescence/redox ratio; activity score, % at 18.7 µM; 0.13% of 350,000 active; AID 602363, 2012;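 active = replicate mean at a twofold rise or more, about +100% in these data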;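 also: firefly luciferase made from a UUG start codon reports start codon fidelity; reporter light over untreated wells divided by growth signal over untreated wells; some hits fall short of that in this replicate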
An asterisk follows results filed as active; / = no result.

[1] CCCC#Cc1cnc2c(c1)C(=O)N([C@H](C)CO)C[C@H](C)[C@@H](CN(C)C(=O)c1cccc(F)c1)O2
[2] O=[N+]([O-])c1ccc(CP(=O)(c2ccccc2)c2ccccc2)cc1
[3] O=[N+]([O-])c1cccc(CP(=O)(c2ccccc2)c2ccccc2)c1
[4] C[C@H]1CN([C@@H](C)CO)C(=O)c2cc(C#CC3CC3)cnc2O[C@H]1CN(C)C(=O)Nc1ccc(F)cc1
[5] C[C@@H]1CN([C@@H](C)CO)C(=O)Cc2cc(NC(=O)Nc3ccc(C(F)(F)F)cc3)ccc2O[C@H]1CN(C)CC1CCCCC1
[6] O=C(NC(=S)NC1CCCCC1)c1ccc(F)cc1
[7] O=C(NC1CCCCC1)c1ccc([N+](=O)[O-])cc1
[8] N#CCC(=O)Nc1ccc(C(=O)NNC(=S)NC2CCCCC2)cc1

Compound	1	2	3	4	5	6	7	8
CAL PDZ FP-1	/	1	0	/	/	-1	0	/
PglD DTNB	-3	-8	0	3	0	3	-1	3
CAL PDZ FP-2	/	-4	60*	/	/	44*	92*	/
ARNT-TACC3 inh	-1	-4	/	2	-10	4	-4	/
Vif inh	/	14	-1	/	/	-8	23	124*
UUG fidelity	12	2	-22	15	-4	-26	-9	-31

[9] O=C(NC1CCCCCCC1)c1cc([N+](=O)[O-])ccc1Cl
[10] CO[C@H]1CN(C)C(=O)c2ccc(NS(=O)(=O)CC(F)(F)F)cc2OC[C@@H](C)N(CC2CCCCC2)C[C@H]1C
[11] Cc1ccc(/C=N/NC(=O)CSc2nnc(-c3ccccc3)n2-c2ccc(Cl)cc2)o1
[12] C[C@H](CO)N1C[C@H](C)[C@H](CN(C)Cc2ccc3c(c2)OCO3)Oc2ccc(NC(=O)CCN3CCOCC3)cc2C1=O
[13] CC1CCN(CCCNC(=O)c2ccc3c(=O)n(CCc4ccccc4)c(=O)[nH]c3c2)CC1
[14] CN1CCN(CCCNC(=O)c2ccc3c(=O)n(CCc4ccccc4)c(=O)[nH]c3c2)CC1
[15] Cc1ccc(-n2c(=O)[nH]c3cc(C(=O)NC4CCN(Cc5ccccc5)CC4)ccc3c2=O)cc1
[16] O=C(C[C@H]1C=C[C@@H](NC(=O)Nc2cc(F)ccc2F)[C@H](CO)O1)NCc1ccc2c(c1)OCO2

Compound	9	10	11	12	13	14	15	16
CAL PDZ FP-1	/	/	-1	/	/	-3	-1	/
PglD DTNB	5	1	/	-4	-4	2	-2	5
CAL PDZ FP-2	-15	/	70*	/	-5	-5	38*	/
ARNT-TACC3 inh	-2	-1	1	9	-11	-3	-5	7
Vif inh	-2	/	-1	/	52*	24	2	/
UUG fidelity	-4	-4	/	-7	8	-10	-19	/

[17] C[C@@H](NC(=O)C[C@H]1CC[C@H]2[C@@H](COC[C@H](O)CN2C(=O)Nc2ccccc2)O1)c1ccccc1
[18] CCc1nnc(NC(=O)c2cccc(NC(=O)C(C)C)c2)s1
[19] COc1cc(OC)c2c(-c3ccccc3)cc(=O)oc2c1C(CCN1CCCC(C)C1)c1ccc(N(C)C)cc1 (stereo not drawn)
[20] COc1cc(OC)c2c(-c3ccccc3)cc(=O)oc2c1C(CCN1CCN(c2ccccc2)CC1)c1ccc(N(C)C)cc1 (stereo not drawn)
[21] CCN(CC)CCC(c1ccc(N(C)C)cc1)c1c(OC)cc(OC)c2c(-c3ccccc3)cc(=O)oc12 (stereo not drawn)
[22] O=C(O)CN1CCN(CC(=O)O)CCN(CC(=O)O)CCN(CC(=O)O)CC1
[23] CO[C@H]1CN(C)C(=O)c2ccc(NC(=O)C3CCCCC3)cc2OC[C@H](C)N(Cc2nccs2)C[C@@H]1C

Compound	17	18	19	20	21	22	23
CAL PDZ FP-1	/	-1	0	-2	1	0	/
PglD DTNB	-1	-4	-2	2	-1	-2	4
CAL PDZ FP-2	/	45*	1	-1	2	1	/
ARNT-TACC3 inh	-4	2	45*	1	39*	60*	-2
Vif inh	/	-8	1	-6	-6	-3	/
UUG fidelity	-19	-14	-6	-13	-12	-13	42

Structures shown so far containing a CF3 group, in the order listed:
[5] C[C@@H]1CN([C@@H](C)CO)C(=O)Cc2cc(NC(=O)Nc3ccc(C(F)(F)F)cc3)ccc2O[C@H]1CN(C)CC1CCCCC1
[10] CO[C@H]1CN(C)C(=O)c2ccc(NS(=O)(=O)CC(F)(F)F)cc2OC[C@@H](C)N(CC2CCCCC2)C[C@H]1C

Compound	5	10
CAL PDZ FP-1	/	/
PglD DTNB	0	1
CAL PDZ FP-2	/	/
ARNT-TACC3 inh	-10	-1
Vif inh	/	/
UUG fidelity	-4	-4
